Data from PubChem BioAssay AID686996 (Broad Institute, 2013).
The entries are a selection whose mix differs from that of the whole data set. Calls of active or inactive are those of the source.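 How the source made its calls: active means mean inhibition across replicates at least about 35%, with every replicate also reaching that limit (limit read from the data); inconclusive means only one of the two criteria met; inactive means neither criterion met.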

Amino acid sequences for entries named in this document (tags omitted). A change or cut given only in a name is not applied to a line headed by its entry.
UniProt P55212: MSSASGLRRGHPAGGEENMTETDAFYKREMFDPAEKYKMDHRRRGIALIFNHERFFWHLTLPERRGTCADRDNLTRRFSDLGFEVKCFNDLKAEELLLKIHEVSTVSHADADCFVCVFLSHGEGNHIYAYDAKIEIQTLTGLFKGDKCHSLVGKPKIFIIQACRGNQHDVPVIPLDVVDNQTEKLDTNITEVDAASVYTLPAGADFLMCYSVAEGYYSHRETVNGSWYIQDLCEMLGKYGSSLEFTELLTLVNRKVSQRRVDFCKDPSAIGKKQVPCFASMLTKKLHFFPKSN

biological target: Caspase-6 (Homo sapiens) (UniProt P55212); test: inhibition of CASP6 peptide cleavage – biochemical, VEID-R110 fluorescence, single point, set 2, primary screen (AID 686996); details: purified caspase-6, Z-VEID-R110 cleavage fluorescence; at 12.5 µM; active compounds read high;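 further: 0% = median of neutral control wells and 100% = no fluorescence left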

For `Cc1ccc(NP(=O)(Oc2ccccc2)Oc2ccccc2)nc1`, which inhibition is on record?
The inhibition was inactive: -9.39%.

For `CCN(/C(=N/P(=O)(N1CCOCC1)N1CCOCC1)N1CCOCC1)c1ccc(OC)cc1`, which inhibition is on record?
Its inhibition is inactive: -1.03%.

`C[N+]1=C2C=CC=CC=C2SC12C([N+](=O)[O-])=CC([N+](=O)[O-])=C[C-]2[N+](=O)[O-]` (stereo unspecified) was tested. Which inhibition did it give?
The inhibition was active: 83.4%.

With `Nc1ccc([As](=O)(O)c2ccc(N)cc2)cc1` as the compound, how does the inhibition read?
Its inhibition is inactive: 1.98%.

With `c1cc(-c2nn[nH]n2)ccc1-c1nn[nH]n1` as the compound, how does the inhibition read?
The inhibition was inactive: -2.05%.

For `CC(C)=N/N=C(\N)N[N+](=O)[O-]`, which inhibition is on record?
The inhibition was inactive: 1.98%.

With `CC(C)c1nc(Nc2ccccc2)n(P(=O)(N(C)C)N(C)C)n1` as the compound, how does the inhibition read?
The inhibition was inactive: 0.962%.

For `O=P(Nc1ccccn1)(c1ccc(Br)cc1)c1ccc(Br)cc1`, which inhibition is on record?
The inhibition was inactive: -0.039%.

How did the inhibition turn out when `CN(C)C1(CNC(=O)c2ccc(Cl)c(S(N)(=O)=O)c2)CCCCC1` was run?
Its inhibition is inactive: -2.18%.

For `Nc1ccc(CCCCOc2ccccc2)cc1`, which inhibition is on record?
The inhibition was inactive: 2.71%.

Which inhibition does the source give for `COc1ccc(N)c([N+](=O)[O-])c1[N+](=O)[O-]` here?
Its inhibition is inactive: 24.9%.

With `C[C@H]1OP(=O)(Oc2ccccc2)[C@H](O)[C@H](O)[C@H]1N=[N+]=[N-]` (stereo partly specified) as the compound, how does the inhibition read?
Its inhibition is inactive: 5.76%.

`O=P(Nc1nc2ccccc2s1)(c1ccccc1)c1ccccc1` was tested. Which inhibition did it give?
Its inhibition is inactive: 1.1%.

How did the inhibition turn out when `O=[As](O)(c1ccccc1)c1ccc(O)cc1` was run?
Its inhibition is inactive: 13.9%.

For `O=[N+]([O-])c1ncn(CCn2cnc([N+](=O)[O-])n2)n1`, which inhibition is on record?
Its inhibition is inactive: -0.44%.

Which inhibition does the source give for `CC(=O)NC(SC(=S)N(C)C)C(Cl)(Cl)Cl` (stereo unspecified) here?
Its inhibition is inactive: -1.1%.

With `Nc1ccc([As](=O)(O)c2ccc([N+](=O)[O-])cc2)cc1` as the compound, how does the inhibition read?
The inhibition was inactive: 6%.

How did the inhibition turn out when `C(Cc1nn[nH]n1)Cc1nn[nH]n1` was run?
Its inhibition is inactive: 1.42%.

Which inhibition does the source give for `C/C(N)=N\P(=O)(OCc1ccccc1)OCc1ccccc1` here?
Its inhibition is inactive: 0.567%.

How did the inhibition turn out when `Cc1ccc(NP(=O)(Oc2cccc(C)c2)Oc2cccc(C)c2)nc1` was run?
The inhibition was inactive: -0.683%.

With `c1ccc(-c2nn[nH]n2)c(-c2nn[nH]n2)c1` as the compound, how does the inhibition read?
The inhibition was inactive: -2.91%.

Which inhibition does the source give for `CCNC(=S)/N=C(\N)N[N+](=O)[O-]` here?
The inhibition was inactive: -0.814%.

For `O=C(NC1CCS(=O)(=O)C1)NP(=S)(Oc1ccccc1)Oc1ccccc1` (stereo unspecified), which inhibition is on record?
The inhibition was inactive: -2.88%.

For `O=P1(N(CCCl)CCCl)OCCC2CCCCN21` (stereo unspecified), which inhibition is on record?
The inhibition was inactive: -127%.

Which inhibition does the source give for `O=C(OC1CN2CCC1CC2)c1ccccc1` (stereo unspecified) here?
The inhibition was inactive: -3.29%.

How did the inhibition turn out when `Cc1ccc(OP(=O)(Nc2ccccn2)Oc2ccc(C)cc2)cc1` was run?
Its inhibition is inactive: -0.879%.

`CN(C)C(=O)Oc1noc2ccccc12` was tested. Which inhibition did it give?
Its inhibition is inactive: 3.15%.

With `O=c1c2cc([N+](=O)[O-])ccc2[nH]c2c([N+](=O)[O-])cc([N+](=O)[O-])cc12` as the compound, how does the inhibition read?
Its inhibition is inactive: 18.6%.

Which inhibition does the source give for `Cc1ccccc1OP(=O)(Nc1ccccn1)Oc1ccccc1C` here?
Its inhibition is inactive: 1.17%.

How did the inhibition turn out when `CC(NC(=O)COC(=O)C(O)(c1ccccc1)c1ccccc1)c1ccccc1` (stereo unspecified) was run?
The inhibition was inactive: -0.437%.

For `CCOc1ccc(C2=NCC(CBr)S2)cc1` (stereo unspecified), which inhibition is on record?
The inhibition was inactive: -3.09%.

For `CC(C)(C)C(=O)NC(Sc1ccccc1)C(Cl)(Cl)Cl` (stereo unspecified), which inhibition is on record?
The inhibition was inactive: 1.01%.

How did the inhibition turn out when `CCc1cc(O)c([N+](=O)[O-])c(C)c1[N+](=O)[O-]` was run?
Its inhibition is inactive: 1.56%.

For `C[C@@H]1C=CCP(=O)(Oc2ccccc2)O1` (stereo partly specified), which inhibition is on record?
The inhibition was inactive: 1.71%.

How did the inhibition turn out when `C[C@H]1OP(=O)(Oc2ccccc2)C[C@@H]2O[C@@H]21` (stereo partly specified) was run?
The inhibition was inactive: -6.47%.

How did the inhibition turn out when `Cc1ccccc1CN(C)C(=O)COC(=O)C(O)(c1ccccc1)c1ccccc1` was run?
Its inhibition is inactive: -0.086%.

Which inhibition does the source give for `COC(=O)C1(C)COP(=O)(NCc2ccccc2)OC1` (stereo unspecified) here?
The inhibition was inactive: 1.15%.

With `N#C/C(=C\c1ccc(N(CCBr)CCBr)cc1)C(N)=O` as the compound, how does the inhibition read?
Its inhibition is inactive: -1.12%.

Which inhibition does the source give for `CC(=O)c1ccc(N2CC2c2ccncc2)cc1` (stereo unspecified) here?
Its inhibition is inactive: 2.73%.

With `CC(=O)Nc1ccc(Oc2c([N+](=O)[O-])cc([N+](=O)[O-])cc2[N+](=O)[O-])cc1` as the compound, how does the inhibition read?
Its inhibition is inactive: 6.05%.

For `CC(=O)Nc1ccc([As](=O)(O)O)c(O)c1`, which inhibition is on record?
The inhibition was inactive: 0.933%.
